Measurements published in patent US20050191668A1, “Methods of using peroxisome proliferator-activated receptor alpha target genes” (priority 2004, published 2005).

Legend:
Pa21 gene = Pa21 gene expression by real-time RT-PCR in primary skeletal muscle cells; assay type: cell-based, human; conditions: 300 uM, about 18-20 hours, vehicle control = 100
From the text: (§1) Human hepatocyte HuH7 cells, which are epithelial cells of liver, were obtained from Japan Health Science Research Resources Bank (Osaka, Japan). Human primary adipocytes, which are connective tissue cells specialized for the synthesis and storage of fat, were obtained from Zen-Bio, Inc (Research Triangle Park, NC). Human primary skeletal muscle cells (SKMC) were obtained from Cambrex Bio Science (Walkersville, Md.). PPARα agonists, Wy14643 (Agatha, et al, 2000, Archives of Biochemistry and Biophysics 380:353-359) and fenofibrates were obtained from Cayman Chemical (Ann Arbor, Mich.) and Sigma (St Louis, Mo.), respectively.
(§2) Human HuH7 cells were cultured in Dulbecco's Modified Eagle Medium with 10% Fetal Bovine Serum (Gibco, N.Y.). […]
(§3) Reverse transcription (RT) and PCR were conducted in one step using “One-Step RT-PCR Master Mix Reagent” kit (Applied Biosystems, Foster City, Calif.) in ABI PRISM 7700 Sequence Detection System (Applied Biosystems). […] PCR data were collected by Ct value (the cycle number at which logarithmic PCR plots cross a calculated threshold line) according to the manufacturer's guidelines and the value was used to determine the Δ^Ct (Ct of the target gene minus the Ct of 18S ribosomal RNA controls). Relative mRNA level was calculated using the equation 2^−ΔΔCt as described previously (Heid et al., 1996, Genome Res. 6:986-994).

Pa9 gene = Pa9 gene expression by real-time RT-PCR in primary adipocytes; assay type: cell-based, human; conditions: about 18-20 hours, vehicle control = 100
From the text: as §1, §2, §3

CC(C)OC(=O)C(C)(C)Oc1ccc(C(=O)c2ccc(Cl)cc2)cc1 [Fenofibrate]
Pa21 (H4960) gene expression, Percentage ± SE (%) (Pa21 gene): 710 ± 23.1%
Pa9 (W38098) gene expression, Percentage ± SE (%) (Pa9 gene; 10 uM): 114 ± 11.4%
Pa9 (W38098) gene expression, Percentage ± SE (%) (Pa9 gene; 250 uM): 526 ± 25.8%
